Chains of the proteins cited; added tags and fusions are not shown.
UniProt O60260, whole entry: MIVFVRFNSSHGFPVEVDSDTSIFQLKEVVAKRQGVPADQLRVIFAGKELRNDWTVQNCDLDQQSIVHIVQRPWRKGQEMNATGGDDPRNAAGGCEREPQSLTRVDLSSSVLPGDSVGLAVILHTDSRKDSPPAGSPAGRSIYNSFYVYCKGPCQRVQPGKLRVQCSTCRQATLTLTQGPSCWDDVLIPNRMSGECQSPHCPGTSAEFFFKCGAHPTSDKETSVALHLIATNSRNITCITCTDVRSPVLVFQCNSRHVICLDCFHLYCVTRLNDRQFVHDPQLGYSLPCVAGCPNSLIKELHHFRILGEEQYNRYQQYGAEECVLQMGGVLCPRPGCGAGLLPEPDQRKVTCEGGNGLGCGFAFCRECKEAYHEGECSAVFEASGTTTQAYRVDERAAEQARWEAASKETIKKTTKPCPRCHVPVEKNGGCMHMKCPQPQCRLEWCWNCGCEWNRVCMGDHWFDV

According to patent publication US10889553B2, “Asymmetric triazole benzamide derivatives and the compositions and methods of treatment regarding the same” (NysnoBio Ireland DAC, priority 2017, dated 2021):

Target: Parkin ligase (Homo sapiens, UniProt O60260)
Test: Activity-Based Probe Assay using Ubiquitin vinyl sulfone probe (TR-FRET)
Conditions: read-out: Probe Assay EC50 (μM) [Example 2]; heat activated Parkin, HA-Ub-VS probe, activation EC50

C#Cc1ccc(C(=O)Nc2nc(NC(=O)c3ccc(N=[N+]=[N-])cc3)n(-c3ccccc3)n2)cc1
EC50: 3 µM
